Yeast mating assay 1: variants of the scFv Ab-14

Target peptide (SARS-CoV-2 spike, HR2 region): PDVDLGDISGINAS

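Variants in AAYL49 differ from the parent at up to three CDR positions; double and triple changes were sampled at random. AlphaSeq pools MATa yeast showing the antibodies with MATalpha yeast showing the peptide. Binding brings cells together so that they mate, and sequencing counts the barcode pairs among the diploids. Read counts were normalised to the haploid input and turned into Kd by a linear fit to BCL2-family pairs of known affinity, for each replicate. Mating was done three times.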

Each scFv is VH, a 15-residue (Gly4Ser)3 linker, VL, as in the parent Ab-14, and differs from it in the CDRs of the heavy chain only.
VH: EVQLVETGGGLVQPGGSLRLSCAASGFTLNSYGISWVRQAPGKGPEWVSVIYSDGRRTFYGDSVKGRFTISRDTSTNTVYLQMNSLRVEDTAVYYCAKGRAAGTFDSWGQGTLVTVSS
VL: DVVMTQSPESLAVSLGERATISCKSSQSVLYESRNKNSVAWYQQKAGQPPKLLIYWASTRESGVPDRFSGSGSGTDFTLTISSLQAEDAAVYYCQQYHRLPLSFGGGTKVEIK

Positions count from residue 1 of the parent VH; T28N puts N in place of T.
Affinities are written as log10 Kd with Kd in nM; a lower number is a better binder.
Averages over replicates are reported, and they cover detected replicates only.
Where no diploid with the target was found in that replicate, the entry reads "n.d.": below detection, most likely a poor binder, though not proof of it.

| changes | log10 Kd (nM) by replicate | mean, log10 nM | signal with controls |
|---|---|---|---|
| T28N+K65E+G103V | 1.07 / 1.24 / 1.28 | 1.20 | 4 of 9 (3.92) |
| Y32K+V50H+G99S | n.d. / n.d. / n.d. | n.d. | 0 of 9 |
| Y52N+S53M+T104R | n.d. / 2.85 / n.d. | 2.85 | 1 of 9 (3.56) |
| Y60G+G61E+S107Q | n.d. / n.d. / n.d. | n.d. | 2 of 9 (4.12) |
| F27W+T28L+G99S | n.d. / 3.84 / n.d. | 3.84 | 2 of 9 (3.44) |
| G33T+G55N+A101F | n.d. / n.d. / n.d. | n.d. | 0 of 9 |
| I51N+G61P+V64Y | n.d. / n.d. / n.d. | n.d. | 3 of 9 (4.82) |
| G33S+G55I+Y60I | 3.80 / 4.06 / 3.76 | 3.87 | 6 of 9 (4.23) |
| S31E+K65S | 0.29 / 0.48 / 0.40 | 0.39 | 3 of 9 (4.88) |
| F27D+D62T+A102E | n.d. / n.d. / n.d. | n.d. | 0 of 9 |
| F27P+L29Y+S53Y | n.d. / n.d. / n.d. | n.d. | 1 of 9 (3.22) |
| L29F+F59C+D106I | 4.05 / n.d. / n.d. | 4.05 | 0 of 9 |
| S53E+K65V+S107C | n.d. / n.d. / n.d. | n.d. | 0 of 9 |
| R57C+G61D | n.d. / n.d. / n.d. | n.d. | 1 of 9 (4.30) |
| S31F+Y32S | n.d. / n.d. / n.d. | n.d. | 3 of 9 (3.95) |
| V50N+T58S | n.d. / n.d. / n.d. | n.d. | 1 of 9 (3.75) |
| L29S+Y60P | n.d. / n.d. / n.d. | n.d. | 4 of 9 (4.09) |
| N30H+G61D | 1.19 / 1.47 / 1.12 | 1.26 | 0 of 9 |
| G61F+V64I+D106N | n.d. / n.d. / n.d. | n.d. | 0 of 9 |
| K65V+G103R+T104C | n.d. / n.d. / n.d. | n.d. | 0 of 9 |
| G103Y | n.d. / 3.51 / 3.78 | 3.65 | 0 of 9 |
| S53Q+G103C+D106H | 2.62 / 2.24 / 2.48 | 2.44 | 3 of 9 (3.75) |
| G26I+N30A+I34F | 1.77 / 1.78 / 2.18 | 1.91 | 1 of 9 (5.70) |
| G26E+S63R | 1.09 / 1.09 / 1.39 | 1.19 | 2 of 9 (3.58) |
| S35A+D62H+V64H | n.d. / n.d. / n.d. | n.d. | 0 of 9 |
| R57K+Y60H+K65S | n.d. / n.d. / n.d. | n.d. | 0 of 9 |
| F27Y+S35Y+D106L | n.d. / n.d. / n.d. | n.d. | 1 of 9 (3.76) |
| L29H+T58R+R100W | n.d. / n.d. / n.d. | n.d. | 4 of 9 (3.89) |
| S35I+S63R | n.d. / n.d. / n.d. | n.d. | 0 of 9 |
| G33Q+V64M+D106A | n.d. / n.d. / n.d. | n.d. | 0 of 9 |
| T28W+Y52N+G61R | n.d. / n.d. / 4.30 | 4.30 | 1 of 9 (3.80) |
| N30K+K65E+F105Y | n.d. / n.d. / n.d. | n.d. | 0 of 9 |
| R57W+G103I+T104D | 3.61 / n.d. / n.d. | 3.61 | 2 of 9 (3.82) |
| G55H+R56P+F59W | n.d. / n.d. / n.d. | n.d. | 0 of 9 |
| L29N+G61P+A101I | 3.11 / n.d. / 3.47 | 3.29 | 1 of 9 (4.19) |
| G33V+S35Q+S63H | n.d. / n.d. / n.d. | n.d. | 2 of 9 (2.22) |
| N30C+Y52V+Y60K | n.d. / n.d. / n.d. | n.d. | 0 of 9 |
| G61L+S63Y+V64C | n.d. / n.d. / n.d. | n.d. | 1 of 9 (3.34) |
| V50R+A102N+D106L | 4.54 / 5.22 / 5.98 | 5.25 | 5 of 9 (4.94) |
| V64Q | n.d. / 3.14 / n.d. | 3.14 | 2 of 9 (4.89) |
| G26K+S31V+A101Y | 2.15 / 2.58 / 2.59 | 2.44 | 2 of 9 (4.59) |
| T28N+N30T+F105T | 3.35 / n.d. / n.d. | 3.35 | 1 of 9 (3.25) |
| I34T+R56G+F105P | 3.43 / n.d. / 4.10 | 3.77 | 3 of 9 (3.37) |
| S35R+R56I+G103L | n.d. / 3.34 / n.d. | 3.34 | 1 of 9 (3.38) |
| I34E+V50G+D54F | n.d. / 3.97 / n.d. | 3.97 | 3 of 9 (4.46) |
| G33N+S63M | n.d. / n.d. / 5.48 | 5.48 | 1 of 9 (4.22) |
| S35G+Y60K+T104L | n.d. / n.d. / n.d. | n.d. | 0 of 9 |

The closing 7 entries, repeated:

changes,log10 Kd (nM) by replicate,"mean, log10 nM",signal with controls
G26K+S31V+A101Y,2.15 / 2.58 / 2.59,2.44,2 of 9 (4.59)
T28N+N30T+F105T,3.35 / n.d. / n.d.,3.35,1 of 9 (3.25)
I34T+R56G+F105P,3.43 / n.d. / 4.10,3.77,3 of 9 (3.37)
S35R+R56I+G103L,n.d. / 3.34 / n.d.,3.34,1 of 9 (3.38)
I34E+V50G+D54F,n.d. / 3.97 / n.d.,3.97,3 of 9 (4.46)
G33N+S63M,n.d. / n.d. / 5.48,5.48,1 of 9 (4.22)
S35G+Y60K+T104L,n.d. / n.d. / n.d.,n.d.,0 of 9

Parent in this assay: reference entry 0.65, copy in this library 4.11 (one replicate of three).
Three control strains display no target. For library AAYL49, 15% of the pairings with them gave a signal, with a median of 4.06 and one signal in twenty below 2.83, so weak values seen in few replicates may be background. Also given: how often the same scFv was detected with the empty control strains, with their mean in brackets.

From the AlphaSeq antibody data of Engelhart et al. 2022 (doi:10.1038/s41597-022-01779-4), copy in the FLAb collection.